Test results as given in patent US10213433B2 (AbbVie Inc., priority 2010, dated 2019).

The chains behind the UniProt entries cited, without tags or fusion partners.
UniProt P10415, whole entry: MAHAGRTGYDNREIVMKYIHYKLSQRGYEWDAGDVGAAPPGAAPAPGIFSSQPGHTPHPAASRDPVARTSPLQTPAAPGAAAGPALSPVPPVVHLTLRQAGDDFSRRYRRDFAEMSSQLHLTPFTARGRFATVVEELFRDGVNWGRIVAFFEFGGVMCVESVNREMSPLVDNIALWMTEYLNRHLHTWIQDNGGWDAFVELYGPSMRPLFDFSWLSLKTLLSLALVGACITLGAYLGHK

Molecular target: Bcl-2 protein (Homo sapiens (Human), UniProt P10415)
Assay: Bcl-2 binding TR-FRET (Time-Resolved Fluorescence-Resonance-Energy-Transfer) assay
Conditions: inhibition constant for binding to Bcl-2 protein
From the text: The smaller the Ki value, the greater is the binding affinity.

Structure (SMILES): CC1(C)CCC(CN2CCN(c3ccc(C(=O)NS(=O)(=O)c4ccc(N[C@@H]5CCN(C6COC6)C5)c([N+](=O)[O-])c4)c(Oc4cnc5[nH]ccc5c4)c3)CC2)=C(c2ccc(Cl)cc2)C1 [Compound 224, 4-(4-{[2-(4-chlorophenyl)-4,4-dimethylcyclohex-1-en-1-yl]methyl}piperazin-1-yl)-N-[(3-nitro-4-{[(3R)-1-(oxetan-3-yl)pyrrolidin-3-yl]amino}phenyl)sulfonyl]-2-(1H-pyrrolo[2,3-b]pyridin-5-yloxy)benzamide]
- Ki: < 0.01 nM

Structure (SMILES): CC1(C)CCC(CN2CCN(c3ccc(C(=O)NS(=O)(=O)c4cnc(OC[C@H]5C[C@H]6C[C@@H]5C[C@@]6(C)O)c(Cl)c4)c(Oc4cnc5[nH]ccc5c4)c3)CC2)=C(c2ccc(Cl)cc2)C1 [Compound 343, N-[(5-chloro-6-{[(1R,2S,4R,5R)-5-hydroxy-5-methylbicyclo[2.2.1]hept-2-yl]methoxy}pyridin-3-yl)sulfonyl]-4-(4-{[2-(4-chlorophenyl)-4,4-dimethylcyclohex-1-en-1-yl]methyl}piperazin-1-yl)-2-(1H-pyrrolo[2,3-b]pyridin-5-yloxy)benzamide]
- Ki: < 0.01 nM
